Data as given in patent US7220720B2, “Melanin-concentrating hormone analogs” (Merk & Co., Inc., priority 2000, dated 2007).

Chains of the proteins cited; added tags and fusions are not shown. Lines headed by an entry give the natural chain unless they say otherwise; changes in a name come on top.
UniProt Q99705: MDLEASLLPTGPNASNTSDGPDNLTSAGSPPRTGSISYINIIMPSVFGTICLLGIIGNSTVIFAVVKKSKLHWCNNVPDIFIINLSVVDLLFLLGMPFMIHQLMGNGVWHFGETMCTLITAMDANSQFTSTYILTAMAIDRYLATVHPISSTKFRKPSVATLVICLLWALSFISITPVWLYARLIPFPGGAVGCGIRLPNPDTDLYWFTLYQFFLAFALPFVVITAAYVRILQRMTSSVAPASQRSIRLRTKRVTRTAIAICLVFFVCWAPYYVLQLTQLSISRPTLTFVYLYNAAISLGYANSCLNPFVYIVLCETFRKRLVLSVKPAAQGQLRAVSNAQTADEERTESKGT

Tests used:
human MCH receptor [1] = molecular target: T1, human MCH receptor (Homo sapiens, UniProt Q99705); assay: Radiolabeled MCH-R binding assay: inhibition of [125I]-human MCH (Phe13, Tyr19 substituted) binding to cell membranes (filter or SPA format); parameters: expressed in transfected cells
human MCH receptor [2] = molecular target: T1, human MCH receptor; assay: Aequorin bioluminescence functional assay in 293-AEQ17 cells transfected with human MCH receptor; assay type: cell-based; parameters: expressed in transfected cells; host or cells: 293-AEQ17 (aequorin-expressing HEK-293 reporter line), transient lipofectamine transfection, pcDNA-3 vector; Activity Activation %: concentration or dose not given beside the values
[3] = Table 3, N-methyl-amino acid analogs
[4] = Table 4, position 6 modification

CCCC[C@H]1C(=O)N[C@@H](CC(C)C)C(=O)NCC(=O)N[C@@H](CCCNC(=N)N)C(=O)N[C@@H](C(C)C)C(=O)N[C@@H](Cc2ccc(O)cc2)C(=O)N[C@@H](CCCNC(=N)N)C(=O)N2CCC[C@H]2C(=O)N[C@H](C(N)=O)CSSC[C@H](NC(=O)[C@H](CCCNC(=N)N)NC(C)=O)C(=O)N1C [compound 25]
IC50 (human MCH receptor [1]; [3]): 0.16 nM | Activity Activation % (human MCH receptor [2]; [3]): 110% | EC50 (human MCH receptor [2]; [3]): 20 nM

CCCC[C@@H](NC(C)=O)C(=O)N[C@H]1CSSC[C@@H](C(N)=O)NC(=O)[C@@H]2CCCN2C(=O)[C@H](CCCNC(=N)N)NC(=O)[C@H](Cc2ccc(O)cc2)NC(=O)[C@H](C(C)C)NC(=O)[C@H](CCCNC(=N)N)NC(=O)CNC(=O)[C@H](CC(C)C)NC(=O)[C@H](CCSC)NC1=O [compound 42]
IC50 (human MCH receptor [1]; [4]): 1.2 nM | Activity Activation % (human MCH receptor [2]; [4]): 97% | EC50 (human MCH receptor [2]; [4]): 110 nM

CSCC[C@@H]1NC(=O)[C@@H](NC(=O)[C@@H](CCC(=O)O)NC(C)=O)CSSC[C@@H](C(N)=O)NC(=O)[C@@H]2CCCN2C(=O)[C@H](CCCNC(=N)N)NC(=O)[C@H](Cc2ccc(O)cc2)NC(=O)[C@H](C(C)C)NC(=O)[C@H](CCCNC(=N)N)NC(=O)CNC(=O)[C@H](CC(C)C)NC1=O [compound 46]
Activity Activation % (human MCH receptor [2]; [4]): 85%

CCCC[C@H](NC(C)=O)C(=O)N[C@H]1CSSC[C@@H](C(N)=O)NC(=O)[C@@H]2CCCN2C(=O)[C@H](CCCNC(=N)N)NC(=O)[C@H](Cc2ccc(O)cc2)NC(=O)[C@H](C(C)C)NC(=O)[C@H](CCCNC(=N)N)NC(=O)CNC(=O)[C@H](CC(C)C)NC(=O)[C@H](CCSC)NC1=O [compound 32]
Activity Activation % (human MCH receptor [2]; [4]): 107%

CSCC[C@@H]1NC(=O)[C@@H](NC(=O)[C@@H](CO)NC(C)=O)CSSC[C@@H](C(N)=O)NC(=O)[C@@H]2CCCN2C(=O)[C@H](CCCNC(=N)N)NC(=O)[C@H](Cc2ccc(O)cc2)NC(=O)[C@H](C(C)C)NC(=O)[C@H](CCCNC(=N)N)NC(=O)CNC(=O)[C@H](CC(C)C)NC1=O [compound 45]
IC50 (human MCH receptor [1]; [4]): 2.3 nM | Activity Activation % (human MCH receptor [2]; [4]): 93%

CCCC[C@@H]1NC(=O)[C@@H](NC(=O)[C@H](CCCNC(=N)N)NC(C)=O)CSSC[C@@H](C(N)=O)NC(=O)[C@@H]2CCCN2C(=O)[C@H](CCCNC(=N)N)NC(=O)[C@H](Cc2ccc(O)cc2)NC(=O)[C@H](C(C)C)NC(=O)[C@H](CCCNC(=N)N)NC(=O)CNC(=O)[C@H](CC(C)C)NC1=O [compound 77]
Activity Activation % (human MCH receptor [2]; Table 7, combinations and position 8): 105%

CSCC[C@@H]1NC(=O)[C@@H](NC(=O)[C@@H](CC(N)=O)NC(C)=O)CSSC[C@@H](C(N)=O)NC(=O)[C@@H]2CCCN2C(=O)[C@H](CCCNC(=N)N)NC(=O)[C@H](Cc2ccc(O)cc2)NC(=O)[C@H](C(C)C)NC(=O)[C@H](CCCNC(=N)N)NC(=O)CNC(=O)[C@H](CC(C)C)NC1=O [compound 44]
Activity Activation % (human MCH receptor [2]; [4]): 94%

CSCC[C@@H]1NC(=O)[C@@H](NC(=O)[C@H]2CCCN2C(C)=O)CSSC[C@@H](C(N)=O)NC(=O)[C@@H]2CCCN2C(=O)[C@H](CCCNC(=N)N)NC(=O)[C@H](Cc2ccc(O)cc2)NC(=O)[C@H](C(C)C)NC(=O)[C@H](CCCNC(=N)N)NC(=O)CNC(=O)[C@H](CC(C)C)NC1=O [compound 43]
Activity Activation % (human MCH receptor [2]; [4]): 96%
